According to patent US11661410B2 (GLOBAL BLOOD THERAPEUTICS, INC., priority 2017, dated 2023):

Assays:
[1] = target: norepinephrine transporter (NET) (Homo sapiens (Human), UniProt P23975); assay: biochemical; format: binding; conditions: compound at 10 μM, in duplicate; membranes from cells expressing the transporter; read-out: Norepinephrine Transporter (NET) percent inhibition
serotonin 5HT2A receptor = serotonin 5HT2A receptor (Homo sapiens (Human), UniProt P28223); assay: biochemical; conditions: compound at 10 μM, in duplicate; ligand binding to cell membranes; read-out: Serotonin 5HT2A percent inhibition

| SMILES | inhibition at 10 µM [1] [%] | inhibition at 10 µM (serotonin 5HT2A receptor) [%] |
| --- | --- | --- |
| COc1cc2nc3c(c(N[C@@H]4CCCNC4)c2cc1OC)CCC3 [drawing 594] | 72 | 40 |
| COc1cc2nc3c(c(NCC4CNC4)c2cc1OC)CCC3 [drawing 593] | 57 | 54 |
| COc1cc2nc3c(c(NC4CCNCC4)c2cc1OC)CCC3 [drawing 595] | 57 | 38 |
| COc1cc2nc3c(c(N[C@H]4CNC[C@@H](C)C4)c2cc1OC)CCC3 [drawing 596] | 33 | 27 |
| COc1cc2c(NC(C)C)c3c(nc2cc1OCCCN1CCCC1)CCC3 [drawing 590] | 84 | 98 |
| CCNc1c2c(nc3cc(OCCCN4CCCC4)c(OC)cc13)CCC2 [drawing 591] | 84 | 101 |
| COc1cc2nc3c(c(N[C@@H]4CCCCNC4)c2cc1OC)CCC3 [drawing 597] | 65 | 30 |
